In US20030083271A1, “Topoisomerase I selective cytotoxic sugar derivatives of indolopyrrolocarbazoles” (priority 2001, published 2003) one finds EC50, IC50 and Selectivity Index R/S data, which are given here for 4 molecules.

Protein sequences, listed by entry. Tags and fused reporters are not part of them.
UniProt P11387, whole entry: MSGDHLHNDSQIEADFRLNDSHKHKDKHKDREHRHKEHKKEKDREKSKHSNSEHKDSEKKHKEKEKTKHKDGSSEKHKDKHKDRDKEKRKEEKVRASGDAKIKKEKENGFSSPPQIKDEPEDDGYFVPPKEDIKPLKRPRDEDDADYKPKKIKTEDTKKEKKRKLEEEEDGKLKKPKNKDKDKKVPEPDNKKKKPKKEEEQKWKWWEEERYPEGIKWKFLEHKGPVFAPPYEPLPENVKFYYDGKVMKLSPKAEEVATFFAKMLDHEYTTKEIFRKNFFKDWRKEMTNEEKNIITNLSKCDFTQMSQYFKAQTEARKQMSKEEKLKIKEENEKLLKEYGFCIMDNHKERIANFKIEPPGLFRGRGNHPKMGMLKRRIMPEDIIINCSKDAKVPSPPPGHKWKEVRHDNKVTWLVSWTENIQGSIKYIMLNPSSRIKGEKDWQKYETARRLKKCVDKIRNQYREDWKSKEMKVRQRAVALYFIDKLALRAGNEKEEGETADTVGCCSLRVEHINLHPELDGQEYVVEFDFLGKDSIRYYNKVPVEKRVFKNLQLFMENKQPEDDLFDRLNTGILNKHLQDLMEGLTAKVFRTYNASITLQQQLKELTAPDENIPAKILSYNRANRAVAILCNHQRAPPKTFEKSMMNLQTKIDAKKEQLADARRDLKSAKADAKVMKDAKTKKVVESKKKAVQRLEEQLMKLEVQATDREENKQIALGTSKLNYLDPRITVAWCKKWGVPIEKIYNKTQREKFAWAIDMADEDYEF

What is called EC50 is the concentration at which the effect is half-maximal.

Structures are written as SMILES.

For experiment [1], the target named is purified human topoisomerase I (Homo sapiens, UniProt P11387). The experiment in a line: Topoisomerase I-mediated single strand DNA break induction (in vitro). Conditions: read-out: Topo I EC50; median effect concentration for inducing single-strand breaks in the DNA substrate. As for the experimental part: Topoisomerase I activity was measured as described below. The procedure for assaying compound-induced, topoisomerase I-mediated single strand breaks in DNA was essentially that described by Hsiang, et al., (J. Biol. Chem. 1985, 260, 14873-14878). Samples dissolved in 100% DMSO as either […] or 10 mg/ml solutions, unless otherwise stated, were diluted in Tris-EDTA buffer. Marine bacteriophage PM2 DNA (Boehringer Mannheim) was also diluted in Tris-EDTA buffer to a concentration of 0.02 μg/μl. Different dilutions of the compound being evaluated were mixed with diluted DNA and this mixture was added to […] (one unit of enzyme activity is defined as the amount capable of relaxing 100 ng of supercoiled DNA in approximately 30 minutes at 37° C.) aliquots of purified human topoisomerase I (Topogen) in 2X reaction buffer to start the reaction. The compound-DNA-enzyme mixture was incubated for 30 minutes at 37° C. before stopping the reaction with warm stop buffer containing sodium dodecyl sulfate and proteinase K (Sigma). These mixtures were allowed to incubate at 37° C. for another 10 minutes, at which time the mixtures were removed from the waterbath and extracted with a 24:1 mixture of chloroform/isoamyl alcohol. Following centrifugation, aliquots of the aqueous phases were placed in wells of a 0.9% agarose (SeaKem) gel in Tris-borate buffer containing 0.5 μg/ml of ethidium bromide and subjected to electrophoresis for 15 hours to separate the different topological isomers and nicked and broken DNAs. After destaining the gel in water, the ethidium bromide stained DNA reaction products were visualized by exposing the gel to UV irradiation. Negatives of the photographs of the irradiated gels were scanned with a densitometer and areas under the peaks were calculated in order to obtain percent single strand DNA break formation for each sample. A median effective concentration (EC50) was obtained for each compound by interpolation between points of the resulting dose-effect curve which defines the potency of the compound for its effect in inducing topoisomerase I-mediated single strand breaks in DNA. The topoisomerase I activities for certain compounds of the present invention are shown below in Table I.

The test system of experiment [2] is P388 murine leukemia cells. The experiment in a line: In vitro cell-based cytotoxicity, parental P388 cells. Conditions: read-out: P388 IC50, median cytotoxic concentration, 3 days continuous exposure. As to the method:
The proliferation inhibition activity against the murine P388 cell line was measured as follows. Evaluation of a soluble tetrazolium/formazan assay for cell growth and drug sensitivity in culture, using human and other tumor cell lines, was done according to the procedure described in Cancer Res. 1988, 48, 4827-4833. Cells were plated at 4000 cells/well in 96 well microtiter plates and 24 h later drugs were added and serially diluted. The cells were incubated at 37° C. for 72 h, at which time a tetrazolium dye, XTT, containing phenazine methosulfate was added. A dehydrogenase enzyme in live cells reduced the XTT to a form that absorbs light at 450 nm, which could be quantitated spectrophotometrically. The greater the absorbance the greater the number of live cells. The results are expressed as an IC50, which is the drug concentration required to inhibit cell proliferation (i.e., absorbance at 450 nm) to 50% of that of untreated control cells.
(§1) Similarly, P338 murine leukemia cells were maintained in RPMI 1640 supplemented with 20% fetal bovine serum and 10 μM 2-mercaptoethanol. A camptothecin resistant subline, P388/CPT45, was selected for resistance to camptothecin and is over 1000-fold resistant to this compound (Woessner, et al. Oncol. Res. 1992, 4, 481-488).
(§2) In vitro cytotoxicity was assessed in tissue culture cells by MTS (3-(4,5-dimethylthiazol-2-yl)-5-(3-carboxymethoxyphenyl)-2-(4-sulphenyl)-2H-tetrazolium, inner salt) assay (Riss and Moravec, Mol. Biol. Cell 1992, 3 (Suppl.), 184a). Cells were plated at 8,000 cell/well in 96 well microtiter plates and 24 hours later serial dilutions of the test compounds were made and added to the cells. The cells were incubated at 37° C. for 72 hours, at which time the tetrazolium dye, MTS at 333 μg/ml (final concentration), in combination with the electron coupling agent phenazine methosulfate at 25 μM (final concentration) was added. A dehydrogenase enzyme in live cells reduces the MTS to a form that absorbs light at 492 nm which can be quantitated spectrophotometrically. The greater the absorbance the greater the number of live cells. The results are expressed as an IC50, which is the drug concentration required to inhibit cell proliferation (i.e., absorbance at 492 nm) to 50% of that of untreated control cells.
The cytotoxic activity for certain compounds of the present invention, in both parental P388 and the camptothecin-resistant P388/CPT45 cell lines are shown below in Table I.

The test system of a further experiment is P388/CPT45 cells. The experiment in a line: Cytotoxicity in camptothecin-resistant P388/CPT45 cells relative to parental P388 (selectivity index R/S). Conditions: IC50 P388/CPT45 cells divided by IC50 parental P388 cells.
Text: The present invention includes fluoro sugar and other sugar derivatives of indolopyrrolocarbazoles of formula (I), as defined above. […] Most importantly, the instant invention describes topo I active compounds, related to compounds disclosed in WO 98/07433 and co-pending U.S. application, Ser. No. 08/914566 (both herein incorporated by reference), which display a surprising and unexpected selectivity index when evaluated for cytotoxicity in certain cell lines which express normal levels of topo I required for cell proliferation, compared with cell lines that are deficient in or underexpress topo I. Said “selectivity index” (R/S) was generated by dividing the cytotoxic IC50 of a particular compound against a camptothecin-resistant murine leukemia cell line, P388/CPT45, by the IC50 generated when using the parent P388 cell line. […] A level of selectivity was judged to be advantageous and beneficial in, for example, modulating potential undesirable side effects and/or toxicity. The compounds of the present invention were selected from compounds generically disclosed in WO 98/07433 and co-pending U.S. patent application, Ser. No. 08/914566, on the basis of an unexpected and unpredictable selectivity index (see Table I and II). […] Simple changes in the substitution of the sugar portion or the indolopyrrolocarbazole portion of the present invention will change the selectivity. This change in selectivity is not predictable by one skilled in the art.
as §1
as §2, with “control cells. […]” for “control cells.”

In the case of `O=C1NC(=O)c2c1c1c3ccc(F)cc3[nH]c1c1c2c2ccc(F)cc2n1[C@@H]1O[C@H](CO)[C@@H](O)[C@H](O)C1=O`, in experiment [1], the EC50 came to 280 nM. Further, the IC50 in experiment [2] was determined as 127 nM. Besides, the Selectivity Index R/S with P388/CPT45 cells was determined as 29.3.
With `O=C1NC(=O)c2c1c1c3cc(Br)ccc3oc1c1c2c2cc(F)ccc2n1[C@@H]1O[C@H](CO)[C@@H](O)[C@H](O)[C@H]1O`, in experiment [1], the concentration for a half-maximal effect (EC50) came out at 50 nM. Further, the IC50 in experiment [2] came to 47 nM. Besides, the Selectivity Index R/S with P388/CPT45 cells was found to be 177.
The like results for `O=C1NC(=O)c2c1c1c3cc(F)ccc3[nH]c1c1c2c2cc(F)ccc2n1[C@@H]1O[C@H](CF)[C@H](F)[C@H](O)[C@H]1O` were, in that order, 60 nM, 18 nM and 108.
As to `NC[C@H]1O[C@@H](n2c3ccc(F)cc3c3c4c(c5c6cc(F)ccc6oc5c32)C(=O)NC4=O)[C@H](O)[C@@H](O)[C@@H]1O`, the EC50 in experiment [1] was 30 nM. For the same molecule, the IC50 in experiment [2] worked out at 1780 nM. Moreover, the Selectivity Index R/S in the experiment on P388/CPT45 cells amounted to 5.5.
